The record followed here is patent publication US20250042882A1, “CERTAIN 3-AZABICYCLO[3.1.0]HEXANES AS GLP-1 RECEPTOR MODULATORS” (AstraZeneca AB, priority 2021, published 2025).

By UniProt entry, the sequences of proteins in these tests, tags left out.
UniProt Q14432, whole entry: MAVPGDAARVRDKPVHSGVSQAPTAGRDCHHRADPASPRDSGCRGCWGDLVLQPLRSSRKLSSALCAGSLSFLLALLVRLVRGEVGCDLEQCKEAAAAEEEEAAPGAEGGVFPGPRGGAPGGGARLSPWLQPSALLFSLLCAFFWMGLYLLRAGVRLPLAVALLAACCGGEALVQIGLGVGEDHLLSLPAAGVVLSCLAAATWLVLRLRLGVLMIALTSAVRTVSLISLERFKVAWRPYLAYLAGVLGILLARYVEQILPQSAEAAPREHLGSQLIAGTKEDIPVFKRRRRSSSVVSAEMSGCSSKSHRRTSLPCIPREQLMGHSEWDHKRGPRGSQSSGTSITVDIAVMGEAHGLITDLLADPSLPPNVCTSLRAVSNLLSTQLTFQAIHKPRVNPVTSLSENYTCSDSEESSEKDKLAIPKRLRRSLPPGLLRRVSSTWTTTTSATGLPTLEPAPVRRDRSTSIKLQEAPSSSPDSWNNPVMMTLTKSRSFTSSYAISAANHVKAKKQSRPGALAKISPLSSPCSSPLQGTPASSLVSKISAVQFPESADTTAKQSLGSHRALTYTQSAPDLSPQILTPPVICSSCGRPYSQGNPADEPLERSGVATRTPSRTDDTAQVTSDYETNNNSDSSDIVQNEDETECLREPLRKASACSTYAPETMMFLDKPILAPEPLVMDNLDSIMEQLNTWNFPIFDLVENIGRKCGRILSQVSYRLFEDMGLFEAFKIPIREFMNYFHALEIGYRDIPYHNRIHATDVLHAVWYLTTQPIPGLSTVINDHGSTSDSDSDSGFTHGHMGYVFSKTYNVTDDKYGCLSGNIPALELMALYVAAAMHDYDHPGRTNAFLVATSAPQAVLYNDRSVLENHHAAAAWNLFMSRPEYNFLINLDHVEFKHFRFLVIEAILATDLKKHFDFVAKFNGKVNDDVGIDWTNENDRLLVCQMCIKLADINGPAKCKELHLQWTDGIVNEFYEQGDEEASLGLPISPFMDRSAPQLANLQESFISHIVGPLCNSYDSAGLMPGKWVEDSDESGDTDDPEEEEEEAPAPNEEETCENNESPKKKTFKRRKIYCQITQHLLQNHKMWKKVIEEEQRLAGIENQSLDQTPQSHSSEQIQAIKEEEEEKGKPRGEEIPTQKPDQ

The target in the assay is human phosphodiesterase-3A (Homo sapiens, UniProt Q14432). The experiment in a line: PDE3 Assay. The following applies: read-out: PDE3 IC50; human recombinant enzyme expressed in Sf9 cells; formation of 5′AMP from cAMP, SPA. The protocol: Evaluation of the effects of compounds on the activity of the human phosphodiesterase-3A is quantified by measuring the formation of 5′AMP from cAMP using a human recombinant enzyme expressed in a clonal isolate of Spodoptera frugiperda cells (Sf9) cells.
The test compound, reference compound or water (control) are added to a buffer containing 40 mM tris(hydroxymethyl)aminomethane (Tris)/HCl (pH 7.4) and 8 mM MgCl2, 450 nMcAMP and 0.25 μCi [^3H]cAMP.
Thereafter, the reaction is initiated by addition of the enzyme (about 1 U) and the mixture is incubated for 20 min at 22° C.
For basal control measurements, the enzyme is omitted from the reaction mixture.
Following incubation SPA beads are added. After 30 min at 22° C. under shaking, the amount of [^3H]5′AMP is quantified with a scintillation counter (Topcount, Packard).
The results are expressed as a percent inhibition of the control enzyme activity. The standard inhibitory reference compound is milrinone (CAS number 78415-72-2), which is tested in each experiment at several concentrations to obtain an inhibition curve from which its IC50 value is calculated.

SMILES strings stand for the structures.

The IC50 is the point on the concentration scale where inhibition reaches its midpoint. In the case of `Cc1cc(Cc2nc3ccc(C(=O)O)cc3n2C[C@@H]2CCO2)c(F)cc1-c1cccc(OCc2ccc(C#N)cc2F)n1`, the IC50 amounted to 5 µM.
